Experimental findings from patent US20250075003A1 (UIF UNIVERSITY INDUSTRY FOUNDATION YONSEI UNIVERSITY, published 2025) are described below.

In the test the target is T1, Human VEGF (human, UniProt P15692-4 27-191, limits assumed).
T1 construct: Immobilised on a CM5 chip for SPR and coated on plates for ELISA (Abcam); also called hVEGF; hVEGF protein (Abcam)
T1 sequence (looked up): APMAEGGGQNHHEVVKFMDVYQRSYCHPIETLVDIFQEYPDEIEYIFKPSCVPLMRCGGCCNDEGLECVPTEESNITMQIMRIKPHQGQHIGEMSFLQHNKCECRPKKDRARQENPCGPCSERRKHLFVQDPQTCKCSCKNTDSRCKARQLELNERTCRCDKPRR
In words: Indirect ELISA. The target is not named in the legend and is taken as hVEGF from the ELISA section of Example 1-1. (ELISA stands for enzyme-linked immunosorbent assay.)

B1: HFL (other)
chain: SSQIRQNYSTDVEAAVNSLVNLYLQASYTYLSLGFYFDRDDVALEGVSHFFRELAEEKREGYERLLKMQNQRGGRALFQDIKKPAEDEWGKTPDAMKAAMALEKKLNQALLDLHALGSARTDPHLCDFLETHFLDEEVKLIKKMGDHLTNLHRLGGPEAGLGEYLFERLTLKHD
notes: Ferritin control without scFv; also called hRID-HFL (HFL); not shown: limits and W or 9m version not visible), and any linker, cleavage site or tag between hRID and HFL
As for B1, the binding result is reported as “no binding”.
